Source: article PMC4307180, “Overcoming myelosuppression due to synthetic lethal toxicity for FLT3-targeted acute myeloid leukemia therapy” (eLife, 2014)

Tested on: zebrafish embryos
Experiment: Zebrafish embryonic development / WT morphology
Type: in vivo, Danio rerio (zebrafish)
Details: 3 dpf, vs. vehicle (data not shown)
Protocol: Figure 4. […] (N–P) Three categories of mpo transcription (N, normal; O, intermediate; P, severe) were defined based on the WISH results (three experiments). […] Scale bar equals 500 μm. Blue arrows indicate the pericardial edema, green arrows indicate tail shortening and curving, and red arrows indicate the FLT3-ITD AML mpo+ myeloid cells expansion. […] For all experiments: Zebrafish embryos were collected and kept in standard E3 medium at 28°C. Different concentrations of either drug were added to the E3 medium from 6 hr post fertilization (hpf) to 3 days post fertilization (dpf). Embryos treated with DMSO or 10 μM drug from 6 to 30 hpf were collected for mpo whole mount in situ hybridization (WISH) analysis. […] plasmid DNA containing FLT3/ITD sequence was microinjected into one-cell stage embryos, and the uninjected embryos were used as control. FLT3/ITD-injected embryos were treated with DMSO or 10 μM drug from 6 to 30 hpf.
Wild-type (WT) zebrafish were maintained under standard conditions, and embryos were staged as described ([He et al., 2014]). The study was approved by the Committee of the Use of Live Animals for Teaching and Research in The University of Hong Kong.

For `CO[C@@H]1[C@H](N(C)C(=O)c2ccccc2)C[C@H]2O[C@]1(C)n1c3ccccc3c3c4c(c5c6ccccc6n2c5c31)C(=O)NC4` [PKC412, N-benzoylstaurosporine, reference compound], which “concentration at which pericardial defects begin” value is on record?
The value was 500 nM.
